Drawing on PubChem BioAssay AID588850 (Sanford-Burnham Center for Chemical Genomics, 2011), this text covers inhibition for 107 compounds.

One may read the inhibition as the drop in the measured response relative to a control, in per cent.

Only a part is listed here, and it is no random draw. Calls of active or inactive are those of the source.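 How the source made its calls: active means at least 50% inhibition at 5 µM, scaled per plate between neutral and stimulator controls; inactive means the rest.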

The assay can be described thus: inhibitors of PAF-induced NF-kB signaling, primary screen, cell-based, GFP fluorescence, uHTS (AID 588850).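 Further: PAF is a Pseudomonas aeruginosa culture filtrate used as stimulus; plate controls were PAF-stimulated DMSO wells for no effect and unstimulated DMSO wells for full effect.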 The note with it: KKLEB NF-kB-GFP reporter, GFP fluorescence overnight, at 5 µM, hits give high values.
Take `CC(C)(C)OC(=O)N1CCC(N(C(=O)c2ccccc2)c2ccc(Cl)cc2)CC1`: the inhibition is inactive: 8.4%.

Consider `N#Cc1ccc(C(=O)NCC2(N3CCCCC3)CCCCC2)cc1`, for which the inhibition was inactive: 3.5%.

For `CC(C)(C)n1nnnc1C(c1cccc2ccccc12)N1CCC(n2c(=O)[nH]c3ccccc32)CC1` (configuration not stated), the inhibition is inactive: -18.4%.

With `O=c1[nH]c2ccccc2n1C1CCN(C(c2ccccc2)c2nnnn2C2CCCC2)CC1` (configuration not stated), the inhibition was inactive: 3.5%.

Regarding `CCCN1CCC(Nc2cc(OC)cc(OC)c2)CC1`, the inhibition is inactive: -6%.

On to `Cc1cc(N(CCCl)CCCl)ccc1C=O`, for which the inhibition was inactive: -11.5%.

On to `c1ccc(CN2CCC(Nc3ccccc3)CC2)cc1`, for which the inhibition is inactive: -11.2%.

In the case of `CN(C)C1(CNC(=O)c2cccc(C#N)c2)CCCCC1`, the inhibition was inactive: -8.4%.

Regarding `O=c1[nH]c2ccccc2n1C1CCN(C(c2ccnc3ccccc23)c2nnnn2C2CCCC2)CC1` (configuration not stated), the inhibition was inactive: -2.1%.

In the case of `COc1ccc(C(=O)NCC2(N3CCOCC3)CCCCC2)cc1OC`, the inhibition is inactive: -17.3%.

Turning to `O=c1[nH]c2ccccc2n1C1CCN(C(c2cccs2)c2nnnn2C2CCCCC2)CC1` (configuration not stated), the inhibition was inactive: 24.4%.

On to `O=C(NCC1(N2CCOCC2)CCCCC1)c1cc(Br)ccc1Cl`, for which the inhibition is inactive: -37%.

For the compound `COc1cc(C(=O)NCC2(N3CCOCC3)CCCCC2)cc(OC)c1C`, the inhibition is inactive: 23.8%.

On to `CCCCn1nnnc1C(c1ccccc1)N1CCC(n2c(=O)[nH]c3ccccc32)CC1` (configuration not stated), for which the inhibition is inactive: -0.7%.

As to `CCCCn1nnnc1C(c1cccc(OC)c1OC)N1CCC(n2c(=O)[nH]c3ccccc32)CC1` (configuration not stated), the inhibition was inactive: -11.4%.

As for `O=c1[nH]c2ccccc2n1C1CCN(C(c2cccs2)c2nnnn2C2CCCC2)CC1` (configuration not stated), the inhibition is inactive: 10%.

Take `O=C(OC1CN2CCC1CC2)C1c2ccccc2C=Cc2ccccc21` (configuration not stated): the inhibition was inactive: 0.2%.

For `N/C(=N\O)c1c(N)no[n+]1[O-]`, the inhibition was inactive: 8.6%.

In the case of `COc1cccc(C(c2nnnn2C(C)(C)C)N2CCC(n3c(=O)[nH]c4ccccc43)CC2)c1OC` (configuration not stated), the inhibition is inactive: -18.5%.

In the case of `CCOC(=O)N1CCC(Nc2ccc(C)cc2)CC1`, the inhibition was inactive: 4.8%.

As to `CCCOc1ccc(C(=O)NCC2(N(C)C)CCCCC2)cc1`, the inhibition is inactive: -8.1%.

In the case of `O=c1[nH]c2ccccc2n1C1CCN(C(c2cc3ccccc3o2)c2nnnn2C2CCCC2)CC1` (configuration not stated), the inhibition was inactive: 0%.

Turning to `O=C(O)C1(Nc2ccccc2)CCN(Cc2ccccc2)CC1`, the inhibition is inactive: -8.7%.

As for `CC(C)(C)OC(=O)N1CCC(Nc2ccccc2)CC1`, the inhibition is inactive: 2.2%.

As to `CN1CCC(Nc2ccc(F)c(Cl)c2)CC1`, the inhibition is inactive: 13.3%.

With `CCOc1ncccc1C(=O)NCC1(N2CCOCC2)CCCCC1`, the inhibition is inactive: 12.1%.

Regarding `CN1CCC(Nc2ccc(Cl)cc2)CC1`, the inhibition is inactive: 0.3%.

Consider `CCC(CO)(C(=O)OC1CN2CCC1CC2)c1ccccc1` (configuration not stated), for which the inhibition is inactive: 2.2%.

With `COc1cccc(C(=O)N(c2cc(C)cc(C)c2)C2CCN(C(=O)OC(C)(C)C)CC2)c1`, the inhibition is inactive: 13.1%.

In the case of `COc1cccc(C(c2nnnn2C2CCCC2)N2CCC(n3c(=O)[nH]c4ccccc43)CC2)c1OC` (configuration not stated), the inhibition is inactive: -20.5%.

Turning to `COc1cc(OC)cc(C(=O)NCC2(N3CCOCC3)CCCCC2)c1`, the inhibition is inactive: -1.8%.

Regarding `Cc1ccc(NC2(C#N)CCN(Cc3ccccc3)CC2)cc1`, the inhibition was inactive: 9.3%.

In the case of `Fc1ccccc1NC1CCN(Cc2ccccc2)CC1`, the inhibition is inactive: 0.8%.

For the compound `Cc1ccc(C(=O)NCC2(N3CCCCC3)CCCCC2)o1`, the inhibition was inactive: 32.9%.

Turning to `O=c1[nH]c2ccccc2n1C1CCN(C(c2ccnc3ccccc23)c2nnnn2C2CCCCC2)CC1` (configuration not stated), the inhibition was inactive: 19.6%.

Take `COc1cc(OC)cc(C(=O)NCC2(N3CCCCC3)CCCCC2)c1`: the inhibition is inactive: -5.1%.

`CCC(c1nnnn1C1CCCCC1)N1CCC(n2c(=O)[nH]c3ccccc32)CC1` (configuration not stated): the inhibition was inactive: 1.3%.

Take `CC(=O)N(c1ccccc1)C1CCNCC1`: the inhibition was inactive: 5.5%.

For the compound `COc1cccc(C(c2nnnn2C2CCCCC2)N2CCC(n3c(=O)[nH]c4ccccc43)CC2)c1OC` (configuration not stated), the inhibition is inactive: 8.3%.

As for `Cn1c(=O)[nH]cc(N(CCCl)CCCl)c1=O`, the inhibition is inactive: -17.2%.

As to `CN(C)c1ccc(C(=O)NCC2(N3CCCCC3)CCCCC2)cc1`, the inhibition was inactive: -0.1%.

Consider `O=C(NCC1(N2CCCCC2)CCCCC1)c1ccco1`, for which the inhibition was inactive: -10.1%.

Consider `CC(C)(C)n1nnnc1C(c1ccnc2ccccc12)N1CCC(n2c(=O)[nH]c3ccccc32)CC1` (configuration not stated), for which the inhibition was inactive: -11.4%.

As for `COc1ccc(C(c2nnnn2C2CCCCC2)N2CCC(n3c(=O)[nH]c4ccccc43)CC2)cc1` (configuration not stated), the inhibition is inactive: 8.6%.

Regarding `CCN1CCC(Nc2cccc(F)c2)CC1`, the inhibition is inactive: -26.3%.

Regarding `Cc1ccccc1NC1(C#N)CCN(Cc2ccccc2)CC1`, the inhibition is inactive: 4.2%.

Take `CCOC(=O)N1CCC(Nc2ccc(F)cc2)CC1`: the inhibition is inactive: -13.4%.

Take `COc1ccc(NC2CCN(CCc3ccccc3)CC2)c(OC)c1`: the inhibition is inactive: -3.6%.

Regarding `O=C(NCC1(N2CCCCC2)CCCCC1)c1ccc(F)cc1`, the inhibition was inactive: 8.6%.

With `CCCCOc1ccc(C(=O)NCC2(N3CCOCC3)CCCCC2)cc1`, the inhibition was inactive: -8.4%.

`O=P1(N(CCCl)CCCl)SCCCS1`: the inhibition was inactive: -2.5%.

In the case of `CCCCn1nnnc1C(c1cc2ccccc2o1)N1CCC(n2c(=O)[nH]c3ccccc32)CC1` (configuration not stated), the inhibition was inactive: 42.4%.

On to `CCOc1ccc(C)cc1CN(CCCl)CCCl`, for which the inhibition is inactive: 1.2%.

In the case of `O=C1CCN(Cc2ccccc2)CC1`, the inhibition was inactive: 8.1%.

For the compound `CC(C)(C)n1nnnc1C(c1ccccc1)N1CCC(n2c(=O)[nH]c3ccccc32)CC1` (configuration not stated), the inhibition was inactive: -17.9%.

Take `O=c1[nH]c2ccccc2n1C1CCN(C(c2cccc3ccccc23)c2nnnn2C2CCCC2)CC1` (configuration not stated): the inhibition was inactive: 11.3%.

Consider `COc1cc(C(=O)NCC2(N(C)C)CCCCC2)ccc1OC(F)F`, for which the inhibition was inactive: 6.5%.

Turning to `CCOC(=O)N1CCC(Nc2cccc(C)c2)CC1`, the inhibition was inactive: 11.6%.

Consider `O=c1[nH]c2ccccc2n1C1CCN(C(c2ccccc2)c2nnnn2C2CCCCC2)CC1` (configuration not stated), for which the inhibition is inactive: -9.2%.

On to `Cc1cccc(NC2(C#N)CCN(Cc3ccccc3)CC2)c1`, for which the inhibition was inactive: -9.1%.

Turning to `CSc1ccccc1C(=O)NCC1(N2CCCCC2)CCCCC1`, the inhibition is inactive: 2.5%.

For `CCCCn1nnnc1C(c1cccs1)N1CCC(n2c(=O)[nH]c3ccccc32)CC1` (configuration not stated), the inhibition was active: 77.2%.

Take `CCCCn1nnnc1C(CC)N1CCC(n2c(=O)[nH]c3ccccc32)CC1` (configuration not stated): the inhibition was inactive: -2.7%.

Take `O=C(NCC1(N2CCCCC2)CCCCC1)c1cccs1`: the inhibition was inactive: 4.4%.

As to `O=C(NCC1(N2CCCCC2)CCCCC1)c1ccc(=O)[nH]c1`, the inhibition is inactive: -18.8%.

For `CCC(c1nnnn1C1CCCC1)N1CCC(n2c(=O)[nH]c3ccccc32)CC1` (configuration not stated), the inhibition is inactive: -9.2%.

In the case of `COc1ccc(C(=O)NCC2(N3CCCCC3)CCCCC2)c(OC)c1OC`, the inhibition was inactive: -0.8%.

In the case of `CC(C)(C)OC(=O)N1CCC(N(C(=O)c2ccccc2)c2ccc(F)cc2)CC1`, the inhibition is inactive: 3.2%.

For the compound `COc1ccc(C(=O)NCC2(N3CCCCC3)CCCCC2)cc1`, the inhibition was inactive: -4.2%.

Turning to `CCCCn1nnnc1C(c1ccc(OC)cc1)N1CCC(n2c(=O)[nH]c3ccccc32)CC1` (configuration not stated), the inhibition was inactive: -7.7%.

`CCOC(=O)N1CCC(Nc2ccc(OC)cc2)CC1`: the inhibition was inactive: -3.3%.

Regarding `COc1ccc(Cl)cc1C(=O)NCC1(N2CCOCC2)CCCCC1`, the inhibition was inactive: 1.1%.

`O=c1[nH]c2ccccc2n1C1CCN(C(c2cc3ccccc3o2)c2nnnn2C2CCCCC2)CC1` (configuration not stated): the inhibition was inactive: 21.7%.

Regarding `O=C(OC1CN2CCC1CC2)C1c2ccccc2Oc2ccccc21` (configuration not stated), the inhibition is inactive: -10%.

With `N#CC1(Nc2ccccc2)CCN(Cc2ccccc2)CC1`, the inhibition was inactive: -16.7%.

With `O=C(NCC1(N2CCCCC2)CCCCC1)c1ccc(Cl)s1`, the inhibition was inactive: -4.1%.

`O=C(NCC1(N2CCOCC2)CCCCC1)c1cc2ccccc2o1`: the inhibition is inactive: 0.3%.

On to `Cc1cc(C)cc(N(C(=O)c2ccccc2)C2CCN(C(=O)OC(C)(C)C)CC2)c1`, for which the inhibition is inactive: 6.9%.

With `O=c1[nH]c2ccccc2n1C1CCN(C(c2ccccc2OC(F)(F)F)c2nnnn2C2CCCCC2)CC1` (configuration not stated), the inhibition is inactive: 0.1%.

`O=C(NCC1(N2CCCCC2)CCCCC1)c1ccc(Cl)nc1`: the inhibition was inactive: 14.6%.

Consider `CCCCn1nnnc1C(c1ccnc2ccccc12)N1CCC(n2c(=O)[nH]c3ccccc32)CC1` (configuration not stated), for which the inhibition is inactive: -10.9%.

`O=C(NCC1(N2CCOCC2)CCCCC1)c1cc(F)c(F)cc1Cl`: the inhibition was inactive: 5.5%.

As for `CCC(c1nnnn1C(C)(C)C)N1CCC(n2c(=O)[nH]c3ccccc32)CC1` (configuration not stated), the inhibition is inactive: 15.7%.

As for `COc1cc(OC)c(C(=O)NCC2(N(C)C)CCCCC2)cc1OC`, the inhibition was inactive: 3.3%.

Consider `CN(C)c1cccc(C(=O)NCC2(N3CCCCC3)CCCCC2)c1`, for which the inhibition is inactive: 7.7%.

On to `COc1ccc(CN(CCCl)CCCl)cc1Cl`, for which the inhibition was inactive: 1.6%.

On to `CC(C)c1ccc(NC2CCN(C(=O)OC(C)(C)C)CC2)cc1`, for which the inhibition was inactive: 13.2%.

As for `CCCCn1nnnc1C(c1ccccc1OC(F)(F)F)N1CCC(n2c(=O)[nH]c3ccccc32)CC1` (configuration not stated), the inhibition is inactive: 23.7%.

For the compound `CCCOc1ccc(C(=O)NCC2(N(C)C)CCCCC2)cc1OC`, the inhibition is inactive: 21.7%.

In the case of `Cc1ccc(C(=O)NCC2(N(C)C)CCCCC2)o1`, the inhibition is inactive: 12.2%.

For the compound `COc1ccc(C(c2nnnn2C2CCCC2)N2CCC(n3c(=O)[nH]c4ccccc43)CC2)cc1` (configuration not stated), the inhibition is inactive: -31.7%.

In the case of `O=C(NCC1(N2CCCCC2)CCCCC1)c1cncc(Br)c1`, the inhibition was inactive: 9.5%.

As to `CN1CCC(Nc2cccc(F)c2)CC1`, the inhibition was inactive: 9.4%.

For `CSc1ccc(C(=O)NCC2(N3CCOCC3)CCCCC2)cc1`, the inhibition is inactive: -22.8%.

In the case of `O=C(NCC1(N2CCCCC2)CCCCC1)c1cccc([N+](=O)[O-])c1`, the inhibition was inactive: -6%.

Regarding `N#CC1(Nc2ccccc2)CCN(CCc2ccccc2)CC1`, the inhibition is inactive: -3.7%.

As for `O=c1[nH]c2ccccc2n1C1CCN(C(c2ccccc2OC(F)(F)F)c2nnnn2C2CCCC2)CC1` (configuration not stated), the inhibition was inactive: 7.8%.

For the compound `CCN1CCC(Nc2ccc(Cl)cc2)CC1`, the inhibition is inactive: 14.4%.

Take `O=C(NCC1(N2CCCCC2)CCCCC1)c1ccc(OC(F)F)cc1`: the inhibition was inactive: 0.6%.

As to `CC(C)(C)n1nnnc1C(c1ccccc1OC(F)(F)F)N1CCC(n2c(=O)[nH]c3ccccc32)CC1` (configuration not stated), the inhibition was inactive: 20.4%.

On to `CCCCn1nnnc1C(c1cccc2ccccc12)N1CCC(n2c(=O)[nH]c3ccccc32)CC1` (configuration not stated), for which the inhibition was inactive: -9.7%.

Regarding `COc1ccc(NC2CCN(C(=O)OC(C)(C)C)CC2)cc1`, the inhibition was inactive: 0.7%.

Turning to `CC(C)c1ccc(C(=O)NCC2(N3CCOCC3)CCCCC2)cc1`, the inhibition is inactive: 13.7%.

In the case of `CN1CCN(CCOC(=O)C(O)(c2ccccc2)c2ccccc2)CC1`, the inhibition was inactive: 1.5%.

As to `O=C(NCC1(N2CCOCC2)CCCCC1)c1cc(=O)[nH]c2ccccc12`, the inhibition is inactive: -5.2%.

Consider `COc1cc(C(=O)NCC2(N3CCCCC3)CCCCC2)ccc1OC(F)F`, for which the inhibition was inactive: -15.5%.

On to `O=C(NCC1(N2CCCCC2)CCCCC1)c1cccc(C(F)(F)F)c1`, for which the inhibition was inactive: -4.5%.
